# How the values were obtained:
# Details in all cases: oocyte
# [1] = target: T1, Solute carrier family 22 member 6 (Rattus norvegicus, UniProt O35956); assay: TP_TRANSPORTER: inhibition of DNP-NAC uptake (DNP-NAC: 1 uM, Br,Cl,diF-NAC: 1000 uM) in Xenopus laevis oocytes
# [2] = target: T1, Solute carrier family 22 member 6; assay: TP_TRANSPORTER: inhibition of DNP-NAC uptake (DNP-NAC: 1 uM, Cl-triF-NAC: 1000 uM) in Xenopus laevis oocytes
# [3] = target: T1, Solute carrier family 22 member 6; assay: TP_TRANSPORTER: inhibition of PAH uptake (PAH: 20 uM, Cl-triF-NAC: 1000 uM) in Xenopus laevis oocytes
# [4] = target: T1, Solute carrier family 22 member 6; assay: TP_TRANSPORTER: inhibition of DNP-NAC uptake (DNP-NAC: 1 uM, diBr,diF-NAC: 1000 uM) in Xenopus laevis oocytes
compound,measurement,setting,value
CC(=O)NC(CSC(F)(F)C(Cl)Br)C(=O)O (centres undefined),Activity,[1],inhibitor [(at a rough estimate) 5 % of control]
CC(=O)NC(CSC(F)(F)C(F)Cl)C(=O)O (centres undefined),Activity,[2],inhibitor [(at a rough estimate) 15 % of control]
same,Activity,[3],inhibitor [(at a rough estimate) 30 % of control]
CC(=O)N[C@@H](CSC(F)(F)C(Br)Br)C(=O)O,Activity,[4],inhibitor [(at a rough estimate) 0 % of control]

# — ChEMBL document CHEMBL2074452, “Mercapturic acids (N-acetylcysteine S-conjugates) as endogenous substrates for the renal organic anion transporter-1” (Mol Pharmacol, 2001)
